US6774220B1, “Compounds having lectinic properties and their biological applications” (Association pour le Développement de la Biothérapie …, priority 1995, dated 2004)

System: T (lympho) cells
Assay: Stimulation over 24 hours of the synthesis of DNA in T (lympho) cells
Assay type: cell-based
Details: IL2 (100 u) +M
Experimental: XI Stimulation over 24 hours of the synthesis of DNA in T (lympho) cells
The SCL is excreted in the H-1 medium by PBMC over 24 hours maintained without serum.

In the case of IL2: interleukin-2, the “synthesis of DNA, EXP. N° 1” value is reported as 4,081 ± 341 and the “synthesis of DNA, EXP. N° 2” value is reported as 11,354 ± 772.
